Results: ChEMBL document CHEMBL3862028, “Exploring N-Arylsulfonyl-l-proline Scaffold as a Platform for Potent and Selective αvβ1 Integrin Inhibitors” (ACS Med Chem Lett, 2016)

Sequences of proteins named here, by UniProt entry; tags and fusion partners are left off. Residues count along the entry.
UniProt P06756, 891-1048 limits assumed: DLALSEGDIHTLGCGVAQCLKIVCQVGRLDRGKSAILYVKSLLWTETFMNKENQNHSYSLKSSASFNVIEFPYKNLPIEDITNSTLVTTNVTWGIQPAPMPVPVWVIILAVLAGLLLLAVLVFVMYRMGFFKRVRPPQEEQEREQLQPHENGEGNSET
UniProt P06756, 31-889 limits assumed: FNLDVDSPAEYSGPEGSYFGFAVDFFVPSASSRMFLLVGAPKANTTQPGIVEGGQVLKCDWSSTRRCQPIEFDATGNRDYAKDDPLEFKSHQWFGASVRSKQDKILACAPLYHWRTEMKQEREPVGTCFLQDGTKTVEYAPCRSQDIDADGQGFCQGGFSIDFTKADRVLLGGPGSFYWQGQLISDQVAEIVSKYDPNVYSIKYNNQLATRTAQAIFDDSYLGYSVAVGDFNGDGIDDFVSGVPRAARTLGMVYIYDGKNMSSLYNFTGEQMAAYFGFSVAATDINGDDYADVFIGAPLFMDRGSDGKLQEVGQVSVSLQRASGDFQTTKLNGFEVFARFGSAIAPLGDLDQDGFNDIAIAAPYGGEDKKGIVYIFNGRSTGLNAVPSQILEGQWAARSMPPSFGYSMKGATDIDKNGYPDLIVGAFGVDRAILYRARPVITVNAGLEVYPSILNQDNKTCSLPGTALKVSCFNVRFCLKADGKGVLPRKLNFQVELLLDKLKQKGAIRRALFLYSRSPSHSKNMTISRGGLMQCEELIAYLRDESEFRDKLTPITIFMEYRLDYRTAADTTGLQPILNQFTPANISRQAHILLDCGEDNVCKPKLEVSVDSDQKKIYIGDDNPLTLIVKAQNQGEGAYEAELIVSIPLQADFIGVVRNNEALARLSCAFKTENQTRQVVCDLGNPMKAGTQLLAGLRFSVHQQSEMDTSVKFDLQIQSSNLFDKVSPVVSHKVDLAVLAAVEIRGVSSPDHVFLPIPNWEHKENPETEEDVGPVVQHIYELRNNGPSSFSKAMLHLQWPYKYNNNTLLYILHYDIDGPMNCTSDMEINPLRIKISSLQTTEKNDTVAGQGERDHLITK

Target: Integrin alpha-V/beta-1 (Homo sapiens, UniProt P05556+P06756)
Assay: Inhibition of integrin alphaVbeta1 (unknown origin)-mediated CHO cell adhesion to fibronectin preincubated for 15 to 30 mins followed by 60 min incubation for adhesion by crystal violet staining based cell adhesion assay
Outline: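 α5-deficient CHO cells engineered to express αvβ1 were tested for adhesion to fibronectin (0.3 mg/ml). Values reported as pIC50 (–logIC50, M) with standard deviation, n=3.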

Compound: N=C(N)NCCC[C@H](NC(=O)CN)C(=O)NCC(=O)N[C@@H](CC(=O)O)C(=O)N[C@@H](CO)C(=O)O
- IC50: 100 µM
